## Curated experimental data: properties

Values as listed in the OPERA 2.9 repository of K. Mansouri.

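OPERA's authors assembled the values from existing databases and did not measure them anew. One number stands for a compound and property, with no spread given. How each value was measured is not recorded, so precision varies. A value may pool stereoisomers or salt forms, and the file does not say which form was measured. Unmarked limits or estimates from the upstream databases cannot be ruled out.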

The melting point is given in degrees Celsius. The boiling point refers to atmospheric pressure (760 mmHg), by the definition of the set. logP is the log10 of the octanol-water partition coefficient; higher is more lipophilic. Water solubility is log10 of mol/L, nominally at 25 °C; higher is more soluble. Vapor pressures (log10 mmHg) refer to near room temperature, 15 to 30 °C; higher is more volatile. Henry's law constant (air-water partitioning) is log10 of atm·m3/mol, nominally at 25 °C. fu is the fraction unbound in human plasma, from 0 to 1. Intrinsic clearance (human, µL/min per 10^6 hepatocytes): higher is faster turnover, and 0 stands for none detected.

The entry for CC(C)(C1CCC(O)CC1)C1CCC(O)CC1 (stereo not drawn) [4,4'-Propane-2,2-diyldicyclohexanol] lists log Kow 2.35 and water solubility -3.098 (log10 mol/L) and log VP -5.18 (log10 mmHg). CC(C)c1cc(Cc2cc(C(C)C)c(N)c(C(C)C)c2)cc(C(C)C)c1N [Benzenamine, 4,4'-methylenebis[2,6-bis(1-methylethyl)-] has melting point 60.8 °C and BP 375 °C and log Kow 5.68. CCOP(=O)(NC(C)C)Oc1ccc(SC)c(C)c1 (stereo not drawn) [Fenamiphos] has plasma fu 0.03995 and intrinsic clearance 62.11 µL/min/10^6 cells. C[C@]12CC[C@H]3[C@@H](CCC4=CC(=O)CC[C@@H]43)[C@@H]1CCC2=O [19-Norandrostenedione] has melting point 169 °C and log Kow 2.18 and water solubility -3.155 (log10 mol/L). The entry for CC(C)Oc1cccc(NC(=O)c2ccccc2C(F)(F)F)c1 [Flutolanil] lists Henry's law constant -9.788 (log10 atm·m3/mol) and intrinsic clearance 14.17 µL/min/10^6 cells. For CN(C)C(=O)c1cc2cnc(Cl)nc2n1C1CCCC1 the data give melting point 88 °C and log Kow 2.4 and water solubility -2.709 (log10 mol/L) and log VP -6.663 (log10 mmHg). CCOP(=O)(CN(CCO)CCO)OCC [Diethyl (N,N-bis(2-hydroxyethyl)amino)methanephosphonate] has melting point -43 °C and water solubility 0.547 (log10 mol/L). N#CC1(N=NC2(C#N)CCCCC2)CCCCC1 [1,1'-Diazene-1,2-diyldicyclohexanecarbonitrile] is reported with log Kow 3.256 and water solubility -4.862 (log10 mol/L) and log VP -5.586 (log10 mmHg).

For CC1(C)S[C@@H]2[C@H](N)C(=O)N2[C@H]1C(=O)O [6-Aminopenicillanic acid] the data give water solubility -1.944 (log10 mol/L) and log VP -5.549 (log10 mmHg). C[N+](C)(C)CC1COCO1.[I-] (stereo not drawn) [(1,3-Dioxolan-4-yl)-N,N,N-trimethylmethanaminium iodide] is reported with melting point 159 °C and log Kow -3.03. For CC(C)(C)OOC1(OOC(C)(C)C)CCCCC1 [Cyclohexylidenebis(tert-butyl) peroxide] the data give log Kow 6.85 and log VP -1.035 (log10 mmHg). CCCCC(CC)COC(=O)OOC(C)(C)CC (stereo not drawn) [Tert-Amyl peroxy 2-ethylhexyl carbonate] is reported with log Kow 5.8 and water solubility -6.088 (log10 mol/L). Listed for O=C(O)CCCCCNc1nc(NCCCCCC(=O)O)nc(NCCCCCC(=O)O)n1: melting point 186 °C and log Kow 0.15. Listed for CCOP(=S)(OCC)Oc1cc(-c2ccccc2)on1 [Isoxathion]: log VP -6.001 (log10 mmHg) and Henry's law constant -6.665 (log10 atm·m3/mol). Listed for Cc1cccc([C@H](C)c2cnc[nH]2)c1C [Dexmedetomidine]: log Kow 2.8 and water solubility -3.061 (log10 mol/L). Brc1ccc(Oc2cc(Br)c(Br)cc2Br)c(Br)c1 [2,2',4,4',5-Pentabromodiphenyl ether] has melting point 92.3 °C and water solubility -8.111 (log10 mol/L).

The entry for CCC1(c2ccc(N)cc2)CCC(=O)NC1=O (stereo not drawn) [Aminoglutethimide] lists log Kow 1.3 and water solubility -2.797 (log10 mol/L) and plasma fu 0.6287. The entry for FC(F)OC(F)(F)C(F)Cl (stereo not drawn) [Enflurane] lists water solubility -1.515 (log10 mol/L) and log VP 2.243 (log10 mmHg). COS(=O)(=O)OC [Dimethyl sulfate] is reported with log Kow 0.16 and water solubility -0.662 (log10 mol/L). The entry for OCCOCCO [Diethylene glycol] lists log Kow 1.3 and plasma fu 0.97. The entry for C[C@]12COC(=O)C[C@@H]1CC[C@@H]1[C@@H]2CC[C@@]2(C)[C@H]1CC[C@]2(C)O [Oxandrolone] lists log Kow 4.2 and water solubility -4.34 (log10 mol/L). For C[C@@]12CCCCC[C@@H](Cc3ccc(O)cc31)[C@@H]2N [Dezocine] the data give log Kow 3.3 and water solubility -4.244 (log10 mol/L). Listed for CCCCCCCCOC(N)=O [Carbamic acid, octyl ester]: melting point 67 °C and water solubility -3.3 (log10 mol/L). Cc1cnc(C2=NC(=O)C(C)(C(C)C)N2)c(C(=O)O)c1 (stereo not drawn) [Imazapic] has plasma fu 0.5475 and intrinsic clearance 0 µL/min/10^6 cells.

The entry for C[C@]12C=CC3=C4CCC(=O)C=C4CC[C@H]3[C@@H]1CC[C@@H]2O [17beta-trenbolone] lists plasma fu 0.0999 and intrinsic clearance 37.4 µL/min/10^6 cells. COc1cc([C@@H]2c3cc4c(c(O)c3C[C@H]3COC(=O)[C@@H]32)OCO4)cc(OC)c1O [alpha-Peltatin] is reported with melting point 236 °C and water solubility -4.125 (log10 mol/L). Listed for CC(C)OC(=O)Nc1cccc(Cl)c1 [Chlorpropham]: plasma fu 0.0429 and intrinsic clearance 78.1 µL/min/10^6 cells. FC(F)(F)I [Trifluoroiodomethane] is reported with log Kow 2.41 and water solubility -2.072 (log10 mol/L).

2 of these entries, quoted again:

{"smiles": "COc1cc([C@@H]2c3cc4c(c(O)c3C[C@H]3COC(=O)[C@@H]32)OCO4)cc(OC)c1O", "name": "alpha-Peltatin", "melting point (°C)": "236", "water solubility (log10 mol/L)": "-4.125"}
{"smiles": "Brc1ccc(Oc2cc(Br)c(Br)cc2Br)c(Br)c1", "name": "2,2',4,4',5-Pentabromodiphenyl ether", "melting point (°C)": "92.3", "water solubility (log10 mol/L)": "-8.111"}